# Reference: patent USRE43802E1, “α- and β-amino acid hydroxyethylamino sulfonamides useful as retroviral protease inhibitors” (G.D. Searle LLC, priority 1992, dated 2012)
# Molecular target: T1, HIV protease (Human immunodeficiency virus type 1 group M subtype B, UniProt P04585)
# T1 construct: HIV protease is diluted in the assay buffer to a final enzyme concentration of 12.3 nanomolar, based on a molecular weight of 10,780
# Experiment: HIV protease enzyme assay (fluorescence, substrate 2-Ile-Nle-Phe(p-NO2)-Gln-ArgNH2)
# Assay type: biochemical
# Details: Table 21
# Procedure: The enzyme method is described below. […] The positive control is MVT-101 (Miller, M. et al, Science, 246, 1149 (1989)] The assay conditions are as follows:
# Assay buffer: 20 mM sodium phosphate, pH 6.4 20% glycerol 1 mM EDTA 1 mM DTT 0.1% CHAPS
# The above described substrate is dissolved in DMSO, then diluted 10 fold in assay buffer. Final substrate concentration in the assay is 80 μM.
# The final concentration of DMSO is 14% and the final concentration of glycerol is 18%. The test compound is dissolved in DMSO and diluted in DMSO to 10× the test concentration; 10 μl of the enzyme preparation is added, the materials mixed and then the mixture is incubated at ambient temperature for 15 minutes. The enzyme reaction is initiated by the addition of 40 μl of substrate. The increase in fluorescence is monitored at 4 time points (0, 8, 16 and 24 minutes) at ambient temperature. Each assay is carried out in duplicate wells.
compound,measurement,value
CCC(C)[C@H](NC(=O)CNC)C(=O)N[C@@H](Cc1ccccc1)[C@H](O)CN(CCC(C)C)S(=O)(=O)c1ccccc1 (stereo partly shown) [Example 15],IC50,5 nM
